Literature values as cited in patent publication US7235267B1, “Brain cell or nerve cell-protecting agents comprising medicinal ginseng” (priority 1999, dated 2007).

System: hippocampal CA1 pyramidal neurons
Conditions: intracerebroventricular administration; cited from earlier work

B1: interleukin 3: peptide increasing Bcl-xL protein in hippocampal CA1 by intracerebroventricular administration (protein, UniProt P08700 20-152, looked up)
Interleukin-3: APMTQTTPLKTSWVNCSNMIDEIITHLKQPPLPLLDFNNLNGEDQDILMENNLRRPNLEAFNRAVKSLQNASAIESILKNLLPCLPLATAAPTRHPIHIKDGDWNEFRRKLTFYLKTLENAQAQQTTLSLAIF
- expression of Bcl-xL protein in the brain: can increase
